The subject of the data set is caco-2 cell tissue. Description: Permeation rate of tracer/test substances through caco-2 cell monolayers (Transwell) with polymer added apically. An excerpt: This cell line forms on polycarbonate membranes a tissue assemblage which is very similar in appearance and protein composition to small intestinal […]. In the Transwell system (from Costar, Bodenheim, Germany), this artificial endothelial tissue separates two chambers, which are filled with medium, into the apical and the basolateral compartment. This design allows the permeation of a substance through the caco-2 tissue layer to be determined. […] An improvement in permeability is indicated by the reversible opening of the tight junctions.
Caco-2 cells were cultivated in DMEM (Dulbeccos Modified Eagle's Medium, from Gibco BRL, Eggenstein, Germany) with 10% FCS (fetal calf serum), 1% L-glutamine and 4.5 mg/ml glucose at 37° C. with 5% CO2 and 95% relative humidity. After trypsinization, the cells were spread at a density of 3×10^5 cells/cm^2 on transwell polycarbonate filters. Cells between the 30th and 50th passage were used to form monolayers. The monolayers were employed in the experiment 15-21 days (medium change every three days) after spreading of the cells.
Before the experiment, the caco-2 cell tissue was washed in the Transwell filter inserts with PBS (phosphate buffer saline). Then the apical compartment was filled with EBSS (Earl's buffered salt solution, pH 6) and the basolateral compartment was filled with DMEM. After addition of the polymer to be tested, which had been neutralized to pH 7, [Kollicoat® MAE 30D (ethyl acrylate/methacrylic acid 1:1, BASF), Eudragit® L100 (methacrylic acid/methyl methacrylate 1:1, Röhm), Eudragit® S100 (methacrylic acid/methyl methacrylate 1:2, Röhm)] in a concentration of 0.5-3% by weight and of the tracer substance into the apical compartment, samples were taken after 24 hours, and the permeation rate of the tracer substance was determined.
The experiments were analyzed by fluorescence spectrophotometry (Spex Fluorolog 1680: excitation wavelength: 488 nm, emission wavelength: 513 nm), and in the case of C22H32N6O4 by HPLC (column material: Vidac C-18; mobile phase: water/acetonitrile/0.1% trifluoroacetic acid; detection: 240 nm), the experimental results are compiled in Table 1. Measurements which were not done have been indicated by “−”.
For orientation: Passage across Caco-2 layers is used to estimate intestinal permeability.

[1] abbreviates: Control (no polymer), caco-2 monolayer, apical EBSS pH 6, samples after 24 hours.
The mark [2] stands for this setting: with Kollicoat MAE 30 D 1.0% by weight (neutralized to pH 7) apical, 24 hours.
The mark [3] stands for this setting: with Kollicoat MAE 30 D 3.0% by weight (neutralized to pH 7) apical, 24 hours.

For the substance “fluorescein-isothiocyanate-dextran [Dextran-FITC 4400]”, the Permeation rate runs as follows: under setting [1], 0.8 (cm/sec) · 10^−8; under setting [2], 9.6 (cm/sec) · 10^−8; under setting [3], 935 (cm/sec) · 10^−8.

As for “fluorescein-isothiocyanate-dextran [Dextran-FITC 11000]”, the Permeation rate under setting [1] was 2.3 (cm/sec) · 10^−8, the Permeation rate under setting [2] is on record as 17.0 (cm/sec) · 10^−8 and the Permeation rate under setting [3] is recorded as 769 (cm/sec) · 10^−8.

For the origin of these results see patent US6555124B1, “Use of (meth)acrylic acid copolymers to increase the permeability of mucous membranes” (BASF Aktiengesellschaft, priority 1996, dated 2003).
